Source: patent US20140227357A1, “FILL FORMULATIONS AND CAPSULES AND METHOD OF USE TO AVOID MIGRATION OF FILL INTO OR THROUGH THE SHELL” (CAPSUGEL BELGIUM NV, priority 2011, published 2014)

Assay: Technical batch stability study, 2-butanol and 2-pentanone assay by gas chromatography
Type: physicochemical
Details: in Formulation 4, sealed LICAPS; 6 months at 25° C./60% RH in PE bags

In the case of CCCC(C)=O [Formulation 2-pentanone, 2-pentanone], the “assay, % label claim” value is reported as 100.7%.
